ChEMBL document CHEMBL1141379, “Selective inhibitory activity against MAO and molecular modeling studies of 2-thiazolylhydrazone derivatives” (J Med Chem, 2007)

The chains behind the UniProt entries cited, without tags or fusion partners.
UniProt P56560, whole entry: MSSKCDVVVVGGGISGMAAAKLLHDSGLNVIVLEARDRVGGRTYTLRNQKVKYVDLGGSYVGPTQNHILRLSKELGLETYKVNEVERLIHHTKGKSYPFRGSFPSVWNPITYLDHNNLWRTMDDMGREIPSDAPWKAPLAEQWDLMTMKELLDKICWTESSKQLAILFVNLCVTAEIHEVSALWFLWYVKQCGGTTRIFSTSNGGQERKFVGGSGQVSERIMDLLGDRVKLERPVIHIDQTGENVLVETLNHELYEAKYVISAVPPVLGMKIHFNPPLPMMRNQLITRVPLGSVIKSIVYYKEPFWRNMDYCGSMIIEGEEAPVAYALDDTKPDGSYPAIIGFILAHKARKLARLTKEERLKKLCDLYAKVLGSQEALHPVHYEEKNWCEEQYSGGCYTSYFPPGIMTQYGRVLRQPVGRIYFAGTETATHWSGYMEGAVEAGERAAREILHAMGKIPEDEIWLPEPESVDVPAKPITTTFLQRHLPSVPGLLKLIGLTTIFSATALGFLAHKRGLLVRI

Biological target: Amine oxidase [flavin-containing] B (Bos taurus, UniProt P56560)
Assay type: mitochondria, Mitochondria

Row | SMILES | Ki
1 | Cc1csc(N/N=C/c2ccccc2)n1 | 1.32 nM
2 | Cc1csc(N/N=C/c2ccc(Cl)cc2Cl)n1 | 17 nM
3 | Clc1ccc(/C=N/Nc2nc(-c3ccccc3)cs2)c(Cl)c1 | 132 nM
4 | COc1ccc(/C=N/Nc2nc(C)cs2)cc1 | 4.07 nM
5 | Cc1csc(N/N=C/c2ccc(Cl)cc2)n1 | 9.12 nM
6 | COc1ccc(/C=N/Nc2nc(-c3ccccc3)cs2)cc1 | 132 nM
7 | COc1ccc(/C=N/Nc2nc(C)cs2)cc1OC | 7.08 nM
8 | C(=N\Nc1nc(-c2ccccc2)cs1)/c1ccccc1 | 91.2 nM
9 | COc1ccc(/C=N/Nc2nc(-c3ccccc3)cs2)cc1OC | 20.4 nM
10 | Clc1ccc(/C=N/Nc2nc(-c3ccccc3)cs2)cc1 | 170 nM
